According to PubChem BioAssay (NCI):
“And” between values parts separate entries of the source, which are not always exact repeats. Equal entries are not always repeated. Only a part is listed here, and it is no random draw.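 Assay: single dose, 48 h. Readout: percent growth (0 = no net growth; negative = cell death). Active: <10.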 The source made the active and inactive calls.

Each molecule was assayed on SR leukemia (assay: NCI-60 one-dose screen, 48 h (100 = growth as untreated, 0 = no growth, -100 = all killed)). Settings: 10 µM unless noted.

Compound | growth
NC(=O)Nc1ccc([As](=O)(O)O)cc1 | inactive: 88.6%
O=[N+]([O-])c1cc(Cl)cc([N+](=O)[O-])c1O | inactive: 102%
ClP1Nc2cncnc2N1 (centres undefined) | inactive: 90.2%

What follows are molecules tested on RPMI-8226 leukemia in the same assay as above. Settings: 10 µM unless noted.

Compound | growth
COc1cc([N+](=O)[O-])c([N+](=O)[O-])cc1N | inactive: 83.6%
Cc1ccc(Sc2ccc([N+](=O)[O-])cc2[N+](=O)[O-])c([N+](=O)[O-])c1 | active: 4.19%
CC(=O)Nc1ccc([As](=O)(O)O)cc1 | inactive: 102%
ClCCN1CCc2ccccc2C1 | inactive: 94.4%
CCOC(=O)NC(C)(CCC(C)(NC(=O)OCC)P(=O)(O)Nc1ncccn1)P(=O)(O)Nc1ncccn1 (centres undefined) | inactive: 98.2% [100 µM]
CCSC(O)C(Cl)(Cl)Cl (centres undefined) | inactive: 100%
COP(=O)(OC)N1CC1c1ccccc1 (centres undefined) | inactive: 106%
O=P1(N(CCCl)CCCl)OCCCS1 (centres undefined) | inactive: 104%
CC[C@H](C)[C@@H]1NC(=O)/C(=C(\C)O)C1=O | inactive: 172%
CCN(CCCl)C(Cc1ccccc1)c1ccccc1 (centres undefined) | inactive: 95.9%
[N-]=[N+]=NS(=O)(=O)c1ccc([N+](=O)[O-])cc1 | inactive: 108%
O=P1(N(CCCl)CCCl)OCCCN1CCCl (centres undefined) | inactive: 102%
O=C1CSC(C(Cl)(Cl)Cl)N1c1ccc(Cl)cc1 (centres undefined) | inactive: 94.6%
ClC1(Cl)SC(Cl)(Cl)C(Cl)(Cl)C1(Cl)Cl | inactive: 111%
Nc1ccc(CCCCOc2ccccc2)cc1 | inactive: 35.5%
CCN(CCCl)c1ccc(CCC(=O)O)cc1 | inactive: 103%
O=C(OC1CN2CCC1CC2)c1ccccc1 (centres undefined) | inactive: 101%
Nc1nnc(N)nn1 | inactive: 97.5%
COP(OC)c1ccc(C)cc1 | inactive: 97.8%

Compound | growth
CCOP(=O)(NC1CCCCC1)OCC | inactive: 89.8%
CC(Cl)CN(CC(C)Cl)C(=O)OCC(N)C(=O)O (centres undefined) | inactive: 99% and inactive: 115%
O=S1(=O)CC(Sc2ccccc2)[C@@H](Cl)C1 (some centres undefined) | inactive: 94.5%
O=C(CCC(=O)Oc1c(Cl)cc([N+](=O)[O-])cc1[N+](=O)[O-])Oc1c(Cl)cc([N+](=O)[O-])cc1[N+](=O)[O-] | inactive: 101%
COc1cccc([As]=O)c1 (centres undefined) | active: -49.4%
c1cc(-c2nn[nH]n2)ccc1-c1nn[nH]n1 | inactive: 94.5%
CCN(CCCl)Cc1ccccc1 | inactive: 94.9%
CCCCOP(=O)(OCCCC)N1CCCC1C(=O)O (centres undefined) | inactive: 97.1%
CCN(CCCl)C1c2ccccc2-c2ccccc21 | inactive: 85.4%
CCOP(=O)(CCBr)OCC | inactive: 96.7% and inactive: 104%
ClCCNCc1ccccc1 | inactive: 106%
O=[As]c1ccc(S(=O)(=O)Nc2ccccc2)cc1 (centres undefined) | active: -0.236%
CCc1cc(O)c([N+](=O)[O-])c(C)c1[N+](=O)[O-] | inactive: 101%
Clc1ccc(P(Cl)Cl)cc1 | inactive: 118%
O=[As](O)(c1ccc(O)cc1)c1ccccc1O | inactive: 76.7%
CCCCCCC(C)OP(O)OC(C)CCCCCC (centres undefined) | inactive: 108%
NC(=O)Nc1ccc([As](=O)(O)O)cc1 | inactive: 104%
O=[N+]([O-])c1cc(Cl)cc([N+](=O)[O-])c1O | inactive: 96.2%
ClP1Nc2cncnc2N1 (centres undefined) | inactive: 112%

The molecules below were run on OVCAR-8 ovarian in the same assay as above. Settings: 10 µM unless noted.

Compound | growth
COc1cc([N+](=O)[O-])c([N+](=O)[O-])cc1N | inactive: 101%
Cc1ccc(Sc2ccc([N+](=O)[O-])cc2[N+](=O)[O-])c([N+](=O)[O-])c1 | inactive: 47.4%
CC(=O)Nc1ccc([As](=O)(O)O)cc1 | inactive: 107%
ClCCN1CCc2ccccc2C1 | inactive: 102%
CCOC(=O)NC(C)(CCC(C)(NC(=O)OCC)P(=O)(O)Nc1ncccn1)P(=O)(O)Nc1ncccn1 (centres undefined) | inactive: 106% [100 µM]
CCSC(O)C(Cl)(Cl)Cl (centres undefined) | inactive: 105%
COP(=O)(OC)N1CC1c1ccccc1 (centres undefined) | inactive: 101%
O=P1(N(CCCl)CCCl)OCCCS1 (centres undefined) | inactive: 103%
CC[C@H](C)[C@@H]1NC(=O)/C(=C(\C)O)C1=O | inactive: 96.9%
CCN(CCCl)C(Cc1ccccc1)c1ccccc1 (centres undefined) | inactive: 98.5%
[N-]=[N+]=NS(=O)(=O)c1ccc([N+](=O)[O-])cc1 | inactive: 99.5%
O=P1(N(CCCl)CCCl)OCCCN1CCCl (centres undefined) | inactive: 105%
O=C1CSC(C(Cl)(Cl)Cl)N1c1ccc(Cl)cc1 (centres undefined) | inactive: 96%
ClC1(Cl)SC(Cl)(Cl)C(Cl)(Cl)C1(Cl)Cl | inactive: 95.1%
Nc1ccc(CCCCOc2ccccc2)cc1 | inactive: 70.6%
CCN(CCCl)c1ccc(CCC(=O)O)cc1 | inactive: 97%
O=C(OC1CN2CCC1CC2)c1ccccc1 (centres undefined) | inactive: 97.5%
Nc1nnc(N)nn1 | inactive: 102%
COP(OC)c1ccc(C)cc1 | inactive: 97.9%

Compound | growth
CCOP(=O)(NC1CCCCC1)OCC | inactive: 104%
CC(Cl)CN(CC(C)Cl)C(=O)OCC(N)C(=O)O (centres undefined) | inactive: 100% and inactive: 105%
O=S1(=O)CC(Sc2ccccc2)[C@@H](Cl)C1 (some centres undefined) | inactive: 100%
O=C(CCC(=O)Oc1c(Cl)cc([N+](=O)[O-])cc1[N+](=O)[O-])Oc1c(Cl)cc([N+](=O)[O-])cc1[N+](=O)[O-] | inactive: 103%
COc1cccc([As]=O)c1 (centres undefined) | active: -92.9%
c1cc(-c2nn[nH]n2)ccc1-c1nn[nH]n1 | inactive: 99.9%
CCN(CCCl)Cc1ccccc1 | inactive: 105%
CCCCOP(=O)(OCCCC)N1CCCC1C(=O)O (centres undefined) | inactive: 103%
CCN(CCCl)C1c2ccccc2-c2ccccc21 | inactive: 99.3%
CCOP(=O)(CCBr)OCC | inactive: 104% and inactive: 94.4%
ClCCNCc1ccccc1 | inactive: 109%
O=[As]c1ccc(S(=O)(=O)Nc2ccccc2)cc1 (centres undefined) | inactive: 75.4%
CCc1cc(O)c([N+](=O)[O-])c(C)c1[N+](=O)[O-] | inactive: 98.5%
Clc1ccc(P(Cl)Cl)cc1 | inactive: 96.9%
O=[As](O)(c1ccc(O)cc1)c1ccccc1O | inactive: 107%
CCCCCCC(C)OP(O)OC(C)CCCCCC (centres undefined) | inactive: 106%
NC(=O)Nc1ccc([As](=O)(O)O)cc1 | inactive: 101%
O=[N+]([O-])c1cc(Cl)cc([N+](=O)[O-])c1O | inactive: 95.4%
ClP1Nc2cncnc2N1 (centres undefined) | inactive: 114%
